Data: patent US11642345B2, “Replication stress pathway agent compositions and methods for treating cancer” (Boundless Bio, Inc., priority 2020, dated 2023)

Test system: Colo320 ecDNA+ and Colo320 ecDNA− cells
Assay: CellTiter-glo viability assay, 7 days, Colo320 ecDNA+ vs ecDNA−
Format: cell-based
Description: Sensitivity of an ecDNA+ (Colo320 ecDNA+) and an ecDNA− (Colo320 ecDNA−) cell line models to WEE1 inhibition was determined by treating each with increasing concentrations of either adavosertib or PD0166285 over a 7 day period. Cell proliferation was determined using a MTS assay (FIG. 27, top panels), while viability was determined using CellTiter-glo assay (FIG. 27 bottom panels).
Cell proliferation was determined using a MTS assay (FIG. 36, top panels), while viability was determined using CellTiter-glo assay (FIG. 36, bottom panels).

## C[C@@H]1COCCN1c1cc(-c2ccnn2C)c2ccnc(-c3ccn[nH]3)c2n1 [BAY1895344]
  sensitivity of Colo320 ecDNA+ compared with ecDNA− cells, viability changes: enhanced sensitivity
